One test is filed under the species Homo sapiens. As to the kind of experiment: Ratio of IC50 for pan Pim in human KMS-12-BM cells to IC50 for full length recombinant Pim-2 (unknown origin). Type of test: cell-based.
Test [1] has as its target Serine/threonine-protein kinase pim-1 (Homo sapiens, UniProt P11309).
Test [2] deals with Serine/threonine-protein kinase PIM (Homo sapiens, UniProt P11309+Q9P1W9+Q86V86). Conditions: kms-12-bm.
The target of test [3] is Serine/threonine-protein kinase pim-2 (Homo sapiens, UniProt Q9P1W9). As to the kind of experiment: Inhibition of full length recombinant Pim-2 (unknown origin) assessed as reduction in phosphorylation of biotinylated-BAD peptide at Serine 112 residue preincubated for 30 mins followed by substrate addition for 1 hr by HTRF assay.

Amino acid sequences for entries named in this document (tags omitted). A change or cut given only in a name is not applied to a line headed by its entry.
UniProt P11309, whole entry: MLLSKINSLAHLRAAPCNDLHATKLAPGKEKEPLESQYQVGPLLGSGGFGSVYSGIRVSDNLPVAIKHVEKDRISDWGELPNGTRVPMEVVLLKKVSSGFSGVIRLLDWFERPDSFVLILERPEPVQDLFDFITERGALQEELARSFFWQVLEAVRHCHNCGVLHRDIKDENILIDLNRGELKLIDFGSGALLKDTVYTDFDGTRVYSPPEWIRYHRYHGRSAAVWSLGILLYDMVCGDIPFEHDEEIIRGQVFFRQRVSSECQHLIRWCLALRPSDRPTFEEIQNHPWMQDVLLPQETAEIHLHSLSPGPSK
UniProt Q9P1W9: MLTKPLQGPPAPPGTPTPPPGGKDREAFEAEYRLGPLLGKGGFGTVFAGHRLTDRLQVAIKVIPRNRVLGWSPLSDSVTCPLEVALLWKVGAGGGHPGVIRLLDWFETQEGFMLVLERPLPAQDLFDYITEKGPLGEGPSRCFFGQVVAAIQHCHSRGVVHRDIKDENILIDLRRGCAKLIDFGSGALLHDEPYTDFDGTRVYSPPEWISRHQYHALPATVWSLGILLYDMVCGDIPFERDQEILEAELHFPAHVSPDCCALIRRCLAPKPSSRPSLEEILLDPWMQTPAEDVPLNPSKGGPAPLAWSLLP

These results are taken from ChEMBL document CHEMBL4477213, “Discovery and Optimization of Quinazolinone-pyrrolopyrrolones as Potent and Orally Bioavailable Pan-Pim Kinase Inhibitors” (J Med Chem, 2016).

As for `Cc1nc2cccc(-c3cc4c([nH]3)[C@@H](C)NC4=O)c2nc1NC(C)(C)C`, the Ratio IC50 in the test filed under Homo sapiens amounted to 30. This compound also displayed an IC50 in test [1] of 0.7 nM.
Turning to `Cc1nc2ccc(F)c(-c3cc4c([nH]3)[C@@H](C)NC4=O)c2nc1NC(C)(C)C`, the IC50 in test [2] came out at 29 nM; in test [3], 0.1 nM; in test [1], 0.1 nM.
The compound `Cc1nc2cccc(-c3cc4c([nH]3)CCCNC4=O)c2nc1NC(C)(C)C` came in with a 50% inhibitory concentration (IC50) in test [2] of 1635 nM.
